{
  "sequences": {"note": "The chains behind the UniProt entries cited, without tags or fusion partners. Residues count along the entry.", "UniProt Q15116, 25-288": "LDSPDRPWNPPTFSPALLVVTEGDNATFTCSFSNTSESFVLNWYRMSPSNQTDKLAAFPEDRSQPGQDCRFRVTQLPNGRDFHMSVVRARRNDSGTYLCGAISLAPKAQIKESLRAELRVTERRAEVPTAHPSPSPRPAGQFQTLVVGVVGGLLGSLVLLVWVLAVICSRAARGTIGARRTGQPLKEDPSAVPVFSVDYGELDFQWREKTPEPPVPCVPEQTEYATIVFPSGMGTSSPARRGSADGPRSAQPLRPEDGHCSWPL"},
  "source": "paper PMC8896178",
  "about": "(mAbs, 2022)",
  "target": "PD1 protein (human) (UniProt Q15116)",
  "assay": "ELISA",
  "data": [
    {"substance": "nivolumab (Opdivo) (antibody)", "values": [
      {"measurement": "EC50", "result": 0.27, "unit": "nM"}
    ]}
  ]
}
